# Reference: ChEMBL document CHEMBL1145212, “Fluorinated diaryl sulfides as serotonin transporter ligands: synthesis, structure-activity relationship study, and in vivo evaluation of fluorine-18-labeled compounds as PET imaging agents” (J Med Chem, 2005)
# Sequences of proteins named here, by UniProt entry; tags and fusion partners are left off.
# UniProt P31645, whole entry: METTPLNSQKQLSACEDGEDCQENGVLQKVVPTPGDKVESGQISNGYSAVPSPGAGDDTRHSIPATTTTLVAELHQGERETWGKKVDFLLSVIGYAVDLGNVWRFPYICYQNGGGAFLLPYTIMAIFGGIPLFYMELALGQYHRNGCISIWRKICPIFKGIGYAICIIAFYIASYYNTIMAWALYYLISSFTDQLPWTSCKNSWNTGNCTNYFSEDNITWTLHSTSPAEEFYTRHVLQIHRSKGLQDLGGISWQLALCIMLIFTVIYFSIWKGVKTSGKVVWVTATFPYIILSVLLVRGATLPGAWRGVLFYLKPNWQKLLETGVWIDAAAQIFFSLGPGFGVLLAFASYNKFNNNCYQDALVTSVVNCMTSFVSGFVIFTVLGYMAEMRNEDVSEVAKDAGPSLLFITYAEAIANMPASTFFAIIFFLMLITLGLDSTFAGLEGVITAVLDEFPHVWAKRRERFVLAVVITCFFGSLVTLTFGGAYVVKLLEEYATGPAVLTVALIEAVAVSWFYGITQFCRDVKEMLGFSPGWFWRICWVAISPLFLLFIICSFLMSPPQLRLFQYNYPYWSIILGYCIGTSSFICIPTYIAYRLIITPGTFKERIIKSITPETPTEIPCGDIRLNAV
# Molecular target: Sodium-dependent serotonin transporter (Homo sapiens, UniProt P31645)
# Test: In vitro displacement of [3H]paroxetine from human serotonin transporter expressed in HEK293 cells
# Assay type: cell-based
# Conditions: tested as the 18F-labelled form
smiles,measurement,value
CN(C)Cc1ccccc1Sc1ccc(F)cc1N,Ki,1.46 nM
